Assay results from patent US7704987B1, “β-amyloid peptide inhibitors” (Prana Biotechnology Ltd, priority 1999, dated 2010).

Test system: Aβ deposited in the brains of Alzheimer's disease patients
Assay: Brain tissue assay: solubilisation of Aβ deposits from post-mortem AD brain (Western blot)
Set-up: species or system human
Settings: post-mortem brain homogenate in PBS, 24 h at room temperature, Western blot (FIG. 7); compound concentrations as in Table 1

With “Iron(III) phthalocyanine chloride [KJB005]” the “ability to solubilise Aβ deposited in the brains of Alzheimer's disease patients” value was “good activity”.
